# Target: D(1A) dopamine receptor (Rattus norvegicus, UniProt P18901)
# Sequences of proteins named here, by UniProt entry; tags and fusion partners are left off.
# UniProt P18901, whole entry: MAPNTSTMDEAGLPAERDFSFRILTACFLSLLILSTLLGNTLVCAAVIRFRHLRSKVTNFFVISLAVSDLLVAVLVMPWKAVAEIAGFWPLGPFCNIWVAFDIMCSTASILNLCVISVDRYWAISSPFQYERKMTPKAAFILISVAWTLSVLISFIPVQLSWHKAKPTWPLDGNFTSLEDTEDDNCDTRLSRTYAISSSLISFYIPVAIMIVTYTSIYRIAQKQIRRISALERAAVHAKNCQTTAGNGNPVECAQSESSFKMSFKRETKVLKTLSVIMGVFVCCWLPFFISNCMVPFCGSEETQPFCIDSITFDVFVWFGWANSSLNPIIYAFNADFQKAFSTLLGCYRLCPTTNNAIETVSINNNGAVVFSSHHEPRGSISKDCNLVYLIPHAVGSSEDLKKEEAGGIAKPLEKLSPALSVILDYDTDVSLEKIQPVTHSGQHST
smiles,measurement,value
"Oc1ccc2c(c1O)Cc1cccc3c1[C@H]2CNC3 [Dinapsoline, (R)(+)]",Ki,6.1 nM
